In paper PMC11840601, “Single Amino Acid Changes Impact the Ability of Drosophila melanogaster Cecropins to Inhibit Growth of Providencia Pathogens” (ACS Omega, 2025):

Key:
P. burhodogranarieaB [1] = format: cell-based, Providencia burhodogranarieaB; details: broth microdilution, 96-well, Mueller Hinton broth, 25 °C, 16 h, OD600, peptide 64-1 or 128-2 μM
Procedure: (§1) Each cecropin was tested for its ability to inhibit the growth of Providencia bacterial species, strains that were previously isolated from D. melanogaster.[31] […] Therefore, we hypothesized the virulence of Providencia species may be partially due to differing susceptibility to cecropins. Experiments were conducted at 25 °C (Table 2), which is the temperature at which D. melanogaster are typically housed and likely reflects the temperature of bacterial growth in vivo as fruit flies are poikilotherms. […] Bacteria were determined to be in the log phase of growth when assays were started (Figure S3). P. burhodogranarieaB and P. burhodogranarieaD were the most susceptible to growth inhibition by all three native cecropin peptides (Table 2), which is unsurprising, given their low virulence and ability of D. melanogaster to sometimes clear infection by these bacteria.[32]P. sneebia, P. alcalifaciens, and P. rettgeri were more resistant to all three cecropins, with no growth inhibition observed against P. alcalifaciens in any condition.
(§2) For all antimicrobial testing, bacteria were cultured in order to obtain cells in their exponential growth phase. Liquid bacterial cultures were inoculated from a single bacterial colony on a streaked LB agar plate. Cultures were grown overnight in Mueller Hinton (MH) broth in an orbital shaker at 150 rpm for 16 h at 25 °C. The optical density (Absorbance600 nm) of overnight cultures were determined using a spectrophotometer (SmartSpec Plus, Bio-Rad, USA or Wireless Spectrometer (Vis), PASCO, USA). The overnight culture was then diluted to an optical density of 0.002 in M–H broth and incubated at 25 °C with shaking (150 rpm). Bacterial growth curves were determined experimentally for each bacterial species and at each temperature (Figure S4). Subcultures were grown for 5 h to ensure that each subculture was in its logarithmic growth phase and at a culture density above 0.1 Abs600 nm. After growth of the subculture for the designated time, the optical density was again measured and the bacterial culture was diluted to 0.002 Abs600 nm (∼2 × 10^6 CFU/mL) in M–H broth for use in subsequent assays.
(§3) The MIC for each peptide was determined using microdilution antimicrobial testing in 96-well plates. Peptide stocks were prepared at 1.28 mM in water and diluted to the desired concentration using M–H broth. A serial dilution was performed, with final peptide concentrations ranging from 64–1 μM or 128–2 μM on each plate. The plate was incubated on an orbital shaker (150 rpm) at 25 °C for 16 h. Growth inhibition was determined by measuring the optical density at 600 nm using a BioTek Synergy H1Microplate Reader. The MIC was determined to be the lowest concentration of peptide where there was no detectable difference in optical density when compared to wells lacking bacteria.

P. burhodogranarieaD [2] = format: cell-based, Providencia burhodogranarieaD; details: 25 °C; for Minimum Inhibitory Concentration: broth microdilution, 96-well, Mueller Hinton broth, 16 h, OD600, peptide 64-1 or 128-2 μM
Procedure: as §1, §2, §3

P. alcalifaciens = format: cell-based, Providencia alcalifaciens; details: broth microdilution, 96-well, Mueller Hinton broth, 25 °C, 16 h, OD600, peptide 64-1 μM
Procedure: as §1
For all antimicrobial testing, bacteria were cultured in order to obtain cells in their exponential growth phase. […] The optical density (Absorbance600 nm) of overnight cultures were determined using a spectrophotometer (SmartSpec Plus, Bio-Rad, USA or Wireless Spectrometer (Vis), PASCO, USA). […] Bacterial growth curves were determined experimentally for each bacterial species and at each temperature (Figure S4). […] After growth of the subculture for the designated time, the optical density was again measured and the bacterial culture was diluted to 0.002 Abs600 nm (∼2 × 10^6 CFU/mL) in M–H broth for use in subsequent assays.
The MIC for each peptide was determined using microdilution antimicrobial testing in 96-well plates. […] Growth inhibition was determined by measuring the optical density at 600 nm using a BioTek Synergy H1Microplate Reader. The MIC was determined to be the lowest concentration of peptide where there was no detectable difference in optical density when compared to wells lacking bacteria.

P. burhodogranarieaB [3] = test: Propidium iodide permeability assay by flow cytometry; format: cell-based, Providencia burhodogranarieaB
Procedure: (§4) First, to assess permeability of the bacterial cells post-treatment, we used propidium iodide (PI), a dye that fluoresces when bound to DNA but is impermeable to intact cell membranes. Cells were analyzed by flow cytometry after various concentrations of an AMP were added to a bacterial culture; increasing cell fluorescence was indicative of a loss of membrane integrity, allowing PI to access the DNA within the bacterial cell (Figure 3). […] To directly assess the ability of bacterial cells to replicate and divide post-treatment, bacterial cultures were plated at various times after the addition of AMP. […] These experiments were performed using peptide concentrations at the previously determined MIC for each peptide-bacteria pair (Table 2).
(§5) Samples were prepared containing 5 μg/mL propidium iodide (PI) in MH broth. The cells were assessed by flow cytometry using a Millipore Guava easyCyte 8 at 0, 1, 3, 5, 7, 9, 11, 13, 15, and 20 min post-treatment and were incubated at 25 °C between measurements. […] Data processing was performed using OMIQ. Briefly, gates were set based on the initial scattering profiles of cells. A threshold was determined for red fluorescence; cells above that threshold were determined to be permeable. Gates and thresholds were applied consistently to each sample.
(§6) The number of total cells dropped over time for many samples due to peptide treatment, and the number of total cells at each time-point were scaled to the number of cells at 0 min. The number of destroyed or “missing” cells was determined by calculating the number of permeable and impermeable cells present at a given time, and subtracting those values from the total number of cells at 0 min.

P. burhodogranarieaD [4] = test: as above; format: cell-based, Providencia burhodogranarieaD
Procedure: as §4, §5, §6

P. burhodogranarieaB [5] = test: Viability (CFU) kinetics assay; format: cell-based, Providencia burhodogranarieaB; details: peptide at MIC
Procedure: as §4
Bacterial cultures were treated with peptides at the experimentally determined MIC and small aliquots were removed at 0, 5, 10, 15, 20, 30- and 60 min post-treatment and diluted 100-fold in ice cold M–H broth. All zero-minute time-points were removed within 20 s of peptide being added. Diluted aliquots were then plated on M–H agar plates using a WASP II autoplate spiral plater (Microbiology International), which deposits 50 μL on each plate in a continuously decreasing concentric spiral. […]

P. rettgeri = format: cell-based, Providencia rettgeri; details: broth microdilution, 96-well, Mueller Hinton broth, 25 °C, 16 h, OD600, peptide 64-1 or 128-2 μM
Procedure: as §1, §2, §3

P. sneebia [6] = format: cell-based, Providencia sneebia; details: broth microdilution, 96-well, Mueller Hinton broth, 25 °C, 16 h, OD600, peptide 64-1 or 128-2 μM
Procedure: as §1, §2, §3

P. sneebia [7] = test: Propidium iodide permeability assay by flow cytometry; format: cell-based, Providencia sneebia
Procedure: as §4, §5, §6

[8] = 1 min after addition of peptide at the MIC, 25 °C, flow cytometry
[9] = after 20 min incubation at MIC (2 μM CecB), flow cytometry

Structure (SMILES) | Minimum Inhibitory Concentration (P. burhodogranarieaB [1]) [µM] | Minimum Inhibitory Concentration (P. burhodogranarieaD [2]) [µM] | Minimum Inhibitory Concentration (P. alcalifaciens) [µM] | cells permeable to propidium iodide (P. burhodogranarieaB [3]; [8]) | cells permeable to propidium iodide (P. burhodogranarieaB [3]; by 7 min, peptide at the MIC) | cells permeable to propidium iodide (P. burhodogranarieaD [4]; [8]) | cells permeable to propidium iodide (P. burhodogranarieaD [4]; by 7 min, peptide at the MIC) | loss of viability (CFU) kinetics (P. burhodogranarieaB [5]) | increase in MIC compared to CecB (P. burhodogranarieaD [2]) [fold] | Minimum Inhibitory Concentration (P. rettgeri) [µM] | kinetics of membrane permeabilization compared to CecBG and CecB (P. burhodogranarieaB [3]; peptide at MIC, over 20 min) | Minimum Inhibitory Concentration (P. sneebia [6]) [µM] | missing cells (decrease in cell count versus before peptide addition) (P. burhodogranarieaB [3]; [9]) | missing cells (decrease in cell count versus before peptide addition) (P. burhodogranarieaD [4]; [9]) [%] | cells permeable to propidium iodide (P. sneebia [7]; [8]) | missing cells (decrease in cell count versus before peptide addition) (P. sneebia [7]; after 20 min incubation at MIC (32 μM CecB), flow cytometry) | cells permeable to propidium iodide (P. sneebia [7]; by 7 min, peptide at the MIC)
CC[C@H](C)[C@H](NC(=O)CNC(=O)[C@H](CC(C)C)NC(=O)CNC(=O)[C@H](CCC(N)=O)NC(=O)[C@@H](NC(=O)[C@@H](NC(=O)[C@H](C)NC(=O)[C@H](CC(=O)O)NC(=O)[C@H](CCCNC(=N)N)NC(=O)[C@@H](NC(=O)[C@H](Cc1c[nH]cn1)NC(=O)[C@H](CCC(N)=O)NC(=O)CNC(=O)[C@@H](NC(=O)[C@H](CCCNC(=N)N)NC(=O)[C@H](CCC(=O)O)NC(=O)[C@@H](NC(=O)[C@H](CCCCN)NC(=O)[C@H](CCCCN)NC(=O)CNC(=O)[C@@H](NC(=O)[C@H](CCCCN)NC(=O)[C@H](CCCCN)NC(=O)[C@H](CC(C)C)NC(=O)[C@H](Cc1c[nH]c2ccccc12)NC(=O)CN)[C@@H](C)CC)[C@@H](C)CC)C(C)C)[C@@H](C)O)[C@@H](C)O)[C@@H](C)CC)C(=O)N[C@@H](C)C(=O)N[C@@H](CCC(N)=O)C(=O)N[C@@H](CCC(N)=O)C(=O)N[C@@H](C)C(=O)N[C@@H](C)C(=O)N[C@@H](CC(N)=O)C(=O)N[C@H](C(=O)N[C@@H](C)C(=O)N[C@@H](C)C(=O)N[C@H](C(=O)N[C@@H](C)C(=O)N[C@@H](CCCNC(=N)N)C(=O)NCC(N)=O)[C@@H](C)O)C(C)C [CecA] | 8 | 16 | >64 | about 5% | greater than 80% | about 5% | greater than 80% | slowest | – | – | – | – | – | – | – | – | –
CC[C@H](C)[C@H](NC(=O)CNC(=O)[C@H](CC(C)C)NC(=O)[C@H](CO)NC(=O)[C@H](CCC(N)=O)NC(=O)[C@@H](NC(=O)[C@H](CO)NC(=O)[C@H](C)NC(=O)[C@H](CC(=O)O)NC(=O)[C@H](CCCNC(=N)N)NC(=O)[C@@H](NC(=O)[C@H](Cc1c[nH]cn1)NC(=O)[C@H](CCC(N)=O)NC(=O)CNC(=O)[C@@H](NC(=O)[C@H](CCCNC(=N)N)NC(=O)[C@H](CCC(=O)O)NC(=O)[C@@H](NC(=O)[C@H](CCCCN)NC(=O)[C@H](CCCCN)NC(=O)CNC(=O)[C@H](CC(C)C)NC(=O)[C@H](CCCCN)NC(=O)[C@H](CCCNC(=N)N)NC(=O)[C@H](CC(C)C)NC(=O)[C@H](Cc1c[nH]c2ccccc12)NC(=O)CN)[C@@H](C)CC)[C@@H](C)CC)[C@@H](C)O)[C@@H](C)CC)C(=O)N[C@@H](C)C(=O)N[C@@H](CCC(N)=O)C(=O)N[C@@H](CCC(N)=O)C(=O)N[C@@H](C)C(=O)N[C@@H](C)C(=O)N[C@@H](CC(N)=O)C(=O)N[C@H](C(=O)N[C@@H](C)C(=O)N[C@@H](C)C(=O)N[C@H](C(=O)N[C@@H](C)C(=O)N[C@@H](CCCNC(=N)N)C(=O)NCC(N)=O)[C@@H](C)O)C(C)C [CecBS] | 4 | 16 | – | – | – | – | – | slowest | 8 | >128 | much more slowly | – | – | – | – | – | –
CC[C@H](C)[C@H](NC(=O)CNC(=O)[C@H](CC(C)C)NC(=O)[C@@H](NC(=O)[C@H](CCC(N)=O)NC(=O)[C@@H](NC(=O)[C@H](CO)NC(=O)[C@H](C)NC(=O)[C@H](CC(=O)O)NC(=O)[C@H](CCCNC(=N)N)NC(=O)[C@@H](NC(=O)[C@H](Cc1c[nH]cn1)NC(=O)[C@H](CCC(N)=O)NC(=O)CNC(=O)[C@@H](NC(=O)[C@H](CCCNC(=N)N)NC(=O)[C@H](CCC(=O)O)NC(=O)[C@@H](NC(=O)[C@H](CCCCN)NC(=O)[C@H](CCCCN)NC(=O)CNC(=O)[C@H](CC(C)C)NC(=O)[C@H](CCCCN)NC(=O)[C@H](CCCNC(=N)N)NC(=O)[C@H](CC(C)C)NC(=O)[C@H](Cc1c[nH]c2ccccc12)NC(=O)CN)[C@@H](C)CC)[C@@H](C)CC)[C@@H](C)O)[C@@H](C)CC)C(C)C)C(=O)N[C@@H](C)C(=O)N[C@@H](CCC(N)=O)C(=O)N[C@@H](CCC(N)=O)C(=O)N[C@@H](C)C(=O)N[C@@H](C)C(=O)N[C@@H](CC(N)=O)C(=O)N[C@H](C(=O)N[C@@H](C)C(=O)N[C@@H](C)C(=O)N[C@H](C(=O)N[C@@H](C)C(=O)N[C@@H](CCCNC(=N)N)C(=O)NCC(N)=O)[C@@H](C)O)C(C)C [CecB] | 2 | 2 | >64 | approximately 20% | greater than 80% | approximately 20% | greater than 80% | – | – | 64 | – | 32 | Approximately 60% | 50 | approximately 20% | almost no | greater than 80%
